# In PubChem BioAssay (Tox21):
# By UniProt entry, the sequences of proteins in these tests, tags left out. Where a name states a change or a piece, a line headed by the entry shows the natural chain unless it says otherwise.
# UniProt P04150: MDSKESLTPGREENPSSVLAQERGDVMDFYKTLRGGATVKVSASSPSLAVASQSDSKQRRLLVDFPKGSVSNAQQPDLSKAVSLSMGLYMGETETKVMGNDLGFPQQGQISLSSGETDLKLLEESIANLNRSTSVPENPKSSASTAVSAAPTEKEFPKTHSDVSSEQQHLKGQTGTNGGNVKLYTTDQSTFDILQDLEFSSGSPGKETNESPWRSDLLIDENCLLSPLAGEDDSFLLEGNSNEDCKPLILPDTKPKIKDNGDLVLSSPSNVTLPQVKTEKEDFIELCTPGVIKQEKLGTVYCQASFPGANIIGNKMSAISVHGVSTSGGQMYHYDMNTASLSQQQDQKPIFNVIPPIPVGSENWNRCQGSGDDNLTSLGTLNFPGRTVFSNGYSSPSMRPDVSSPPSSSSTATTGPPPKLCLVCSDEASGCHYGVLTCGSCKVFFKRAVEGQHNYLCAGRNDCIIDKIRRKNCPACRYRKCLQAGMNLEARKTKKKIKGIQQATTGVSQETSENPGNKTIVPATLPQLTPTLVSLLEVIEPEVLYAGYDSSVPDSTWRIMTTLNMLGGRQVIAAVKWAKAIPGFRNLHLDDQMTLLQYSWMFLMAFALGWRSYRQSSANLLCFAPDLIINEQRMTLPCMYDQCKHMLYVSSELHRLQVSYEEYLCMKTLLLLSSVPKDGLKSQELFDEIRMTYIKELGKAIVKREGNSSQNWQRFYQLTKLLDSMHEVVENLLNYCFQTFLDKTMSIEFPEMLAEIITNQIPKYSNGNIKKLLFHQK
# “And” between values parts separate entries of the source, which are not always exact repeats. Identical values can stand only once. The list shows a part of the results, in another mix than the full data. Results filed as inconclusive are left out. The source made the active and inactive calls. Unless noted, calls follow the shape of the dose curve; as a rule, active = well fitted curve in the direction sought with a large enough effect in the repeat runs; inconclusive = weak or mixed curves; inactive = no such curve, though single readings can be large; an effect the other way counts as inactive or inconclusive.
# How the values were obtained:
# [1] = qHTS assay for small molecules that induce genotoxicity in human embryonic kidney cells expressing luciferase-tagged ATAD5 (AID 651632); conditions: HEK293T ATAD5-luciferase induction, 16 h; at 83.3 µM (top of the series) unless noted; also: nearly all actives have a fitted effect of over 15% in size
# In short: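 Luminescence read-out: after 16 hr compound exposure at 37C, ATAD5-luciferase HEK293T cells received Amplite, 30 min RT, then CCD imaging. A rise in signal marks genotoxic stress.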
# [2] = qHTS assay for small molecules that induce genotoxicity in human embryonic kidney cells expressing luciferase-tagged ATAD5 - cell viability (AID 651634; calls by dose curve; also: nearly all actives have a fitted effect of over 25% in size; also: potency is read from the fitted curve at half-maximal effect)
# In short: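 HEK293T ATAD5-luc cells, 2,000/well; compound 15.5 hr, 37C/5% CO2; CellTiter-Fluor 30 min, 37C; fluorescence read.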
# [3] = qHTS assay for small molecule disruptors of the mitochondrial membrane potential (AID 720635); also: potency is read from the fitted curve at half-maximal effect
# [4] = qHTS assay to test for compound auto fluorescence at 535 nm (green) in HepG2 cells (AID 720675); conditions: green autofluorescence 485/535 nm, 1 h; at 91.3 µM (top of the series) unless noted
# [5] = qHTS assay to test for compound auto fluorescence at 460 nm (blue) in HEK293 cells (AID 720678); conditions: blue autofluorescence 405/460 nm; at 91.3 µM (top of the series) unless noted
# In short: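 Blue-channel (Ex/Em 405/460 nm) intensity measured in HEK293 cultures after overnight compound exposure at 37C; signal expressed relative to triamterene. Cells plated 2,000 per well in 10% dialyzed FBS medium and allowed 4-5 hr to attach.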
# [6] = qHTS assay to test for compound auto fluorescence at 590 nm (red) in HEK293 cells (AID 720679); conditions: red autofluorescence 540/590 nm; at 91.3 µM (top of the series) unless noted
# In short: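 Red-channel autofluorescence (Ex/Em 540/590 nm; Rose Bengal sodium reference) was measured after overnight 37C, 5% CO2 exposure of attached HEK293 cells, 2,000 per well in medium with 10% dialyzed FBS.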
# [7] = qHTS assay to test for compound auto fluorescence at 535 nm (green) in HEK293 cells (AID 720680); conditions: green autofluorescence 485/535 nm; at 91.3 µM (top of the series) unless noted
# [8] = qHTS assay to test for compound auto fluorescence at 460 nm (blue) in HEK293 cell free culture (AID 720681); conditions: cell-free medium, autofluorescence 405/460 nm (blue); at 91.3 µM (top of the series) unless noted
# In short: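 Blue fluorescence (Ex 405/Em 460 nm, triamterene-equivalent) was read immediately after pin transfer of compound or DMSO into medium (DMEM, 10% FBS) without cells.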
# [9] = qHTS assay to test for compound auto fluorescence at 535 nm (green) in HEK293 cell free culture (AID 720682); conditions: cell-free medium, green autofluorescence 485/535 nm, hits give high values; at 91.3 µM (top of the series) unless noted
# In short: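 Intrinsic compound fluorescence is measured in culture medium containing 10% FBS, with excitation at 485 nm and detection at 535 nm, referenced to fluorescein.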
# [10] = qHTS assay to test for compound auto fluorescence at 590 nm (red) in HEK293 cell free culture (AID 720683); conditions: cell-free medium autofluorescence, Ex540/Em590 red; at 91.3 µM (top of the series) unless noted
# In short: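 Red-channel autofluorescence of compounds in culture medium (DMEM, 10% FBS), no cells, measured at 540/590 nm. Rose Bengal sodium is the reference fluorophore for equivalence.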
# [11] = qHTS assay to test for compound auto fluorescence at 590 nm (red) in HepG2 cell free culture (AID 720684); conditions: cell-free medium autofluorescence, red 540/590 nm; at 91.3 µM (top of the series) unless noted
# [12] = qHTS assay to test for compound auto fluorescence at 460 nm (blue) in HepG2 cell free culture (AID 720685); conditions: Cell-free culture medium, blue autofluorescence 405/460 nm; at 91.3 µM (top of the series) unless noted
# In short: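 Cell-free plates of MEM plus 10% FBS received 23 nL compound or DMSO vehicle; blue-channel (405/460 nm) intensity scored against triamterene as reference fluorophore.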
# [13] = qHTS assay to test for compound auto fluorescence at 535 nm (green) in HepG2 cell free culture (AID 720686); conditions: Cell-free medium, green autofluorescence 485/535 nm; at 91.3 µM (top of the series) unless noted
# [14] = qHTS assay to identify small molecule antagonists of the glucocorticoid receptor (GR) signaling pathway - cell viability counter screen (AID 720693); also: nearly all actives have a fitted effect of over 55% in size; also: potency is read from the fitted curve at half-maximal effect
# [15] = qHTS assay for identifying genotoxic compounds that show differential cytotoxicity against isogenic chicken DT40 cell lines with known DNA damage response pathways - wild type cell line (AID 743012); also: nearly all actives have a fitted effect of over 60% in size; also: potency is read from the fitted curve at half-maximal effect
# In short: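 CellTiter-Glo luminescence readout of viability in wild type DT40 cells after 40 h compound exposure at 37 C/5% CO2; 300 cells/well; reagent incubated 30 min at room temperature before reading.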
# [16] = qHTS assay for identifying genotoxic compounds that show differential cytotoxicity against isogenic chicken DT40 cell lines with known DNA damage response pathways - Rev3 mutant cell line (AID 743014); also: nearly all actives have a fitted effect of over 55% in size; also: potency is read from the fitted curve at half-maximal effect
# [17] = qHTS assay for identifying genotoxic compounds that show differential cytotoxicity against isogenic chicken DT40 cell lines with known DNA damage response pathways - Rad54/Ku70 mutant cell line (AID 743015); also: nearly all actives have a fitted effect of over 60% in size; also: potency is read from the fitted curve at half-maximal effect
# [18] = qHTS assay for small molecule agonists of the p53 signaling pathway - cell viability (AID 651633; calls by dose curve;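 also: p53RE-bla HCT reporter cells with a stable beta-lactamase p53 reporter; nearly all actives have a fitted effect of over 30% in size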); conditions: p53RE-bla HCT-116 viability, ATP luminescence, 16 h; at 83.3 µM (top of the series) unless noted
# In short: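 Viability counter-read: CellTiter-Glo luminescence (30 min, room temperature) in the same p53RE-bla plates. These plates had been exposed to compounds for 16 h at 37 C.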
# [19] = target: Glucocorticoid receptor (Homo sapiens) (UniProt P04150); assay: qHTS assay to identify small molecule agonists of the glucocorticoid receptor (GR) signaling pathway (AID 720691; active = well fitted activation curve with a large enough effect in the signal ratio in the repeat runs, not every such curve was filed as active; the % refers to the signal ratio); conditions: GR-bla HeLa, beta-lactamase reporter ratio, 18 h; at 62.4 µM (top of the series) unless noted
# [20] = target: Glucocorticoid receptor (Homo sapiens) (UniProt P04150); assay: qHTS assay to identify small molecule antagonists of the glucocorticoid receptor (GR) signaling pathway (AID 720692; active = well fitted inhibition curve with a large enough effect in the signal ratio in the repeat runs, not every such curve was filed as active; the % refers to the signal ratio); conditions: GR-bla HeLa, beta-lactamase FRET ratio, dexamethasone-stimulated, 18 h; at 58.5 µM (top of the series) unless noted
# % is scaled to controls: 0 for no effect and ±100 for the full control effect.
Structure (SMILES),activation [1],Potency [2],Potency [3],"fluorescence, % of fluorescein control [4]","fluorescence, % of triamterene [5]","fluorescence, % of fluorescent control [6]","fluorescence, % of fluorescein [7]","fluorescence, % of fluorescent control [8]",activity change [9],"fluorescence, % of fluorescent control [10]","fluorescence, % of Rose Bengal [11]","fluorescence, % of fluorescent control [12]","fluorescence, % of fluorescein control [13]",Potency [14],Potency [15],Potency [16],Potency [17],"activity change, negative = cytotoxicity [18]",activation [19],"activity change, negative = inhibition [20]"
O=[As]c1ccccc1 (stereo unspecified),inactive: -16.2%,active: 0.864 µM,active: 686 nM,inactive: -0.0071%,inactive: 0.108%,inactive: -0.13%,inactive: 0.0008%,inactive: -0.0451%,inactive: -0.0111%,inactive: -0.232%,inactive: 0.0046%,inactive: 0.0188%,inactive: -0.174%,active: 4.9 µM,active: 0.0686 µM,active: 0.077 µM,–,–,–,–
N#CSc1ccc([N+](=O)[O-])cc1[N+](=O)[O-],–,–,–,inactive: -0.194%,inactive: -0.523%,inactive: -0.124%,inactive: -0.187%,inactive: -0.549%,inactive: -0.0479%,inactive: 0.015%,inactive: 0.0253%,inactive: -0.122%,inactive: -0.026%,–,active: 1.22 µM,active: 1.22 µM,active: 1.37 µM,–,–,–
CCCCO[P+](=O)OCCCC,inactive: -2.81% and inactive: -0.652%,inactive,inactive,inactive: -0.0242% and inactive: 0.032%,inactive: -0.0037% and inactive: -0.132%,inactive: 0.062% and inactive: 0.123%,inactive: -0.0131% and inactive: 0.0112%,inactive: 0.0243% and inactive: -0.0614%,inactive: 0.0442% and inactive: 0.041%,inactive: 0.511% and inactive: 0.0049%,inactive: -0.636% and inactive: -0.0014%,inactive: -0.148% and inactive: -0.157%,inactive: 0.0263% and inactive: -0.0058%,inactive,inactive,inactive,inactive,inactive: -2.06% and inactive: 5.34%,–,–
O=[p+]1oc2ccccc2c2ccccc21 (stereo unspecified),inactive: 10.6%,inactive,–,inactive: -0.016%,inactive: -0.129%,inactive: 0.0921%,inactive: 0.114%,inactive: 0.0106%,inactive: 0.0229%,inactive: -0.215%,inactive: -0.0388%,inactive: -0.137%,inactive: -0.0017%,inactive,inactive,inactive,inactive,inactive: 5.45%,inactive: -2.18%,inactive: -6.61%
O=P(Cl)(Oc1ccccc1)Oc1ccccc1,inactive: 1.92%,inactive,–,inactive: 0.0743%,inactive: 0.0439%,inactive: 0.139%,inactive: 0.0327%,inactive: 0.0104%,inactive: -0.0131%,inactive: 0.0186%,inactive: -0.316%,inactive: 0.323%,inactive: -0.0023%,inactive,–,inactive,inactive,inactive: 19.9%,inactive: 0.0192%,–
O=[P+](Oc1ccccc1)Oc1ccccc1,inactive: 1.27%,inactive,inactive,inactive: 0.0016%,inactive: -0.288%,inactive: -0.504%,inactive: -0.02%,inactive: -0.118%,inactive: -0.0151%,inactive: -0.282%,inactive: 0.25%,inactive: 0.0008%,inactive: -0.0217%,inactive,inactive,inactive,inactive,inactive: -10.9%,inactive: 0.3%,inactive: 0.534%
Cc1cc([N+](=O)[O-])cc([N+](=O)[O-])c1O,inactive: -11.8% and inactive: -1.88%,–,active: 686 nM and active: 609 nM,inactive: -0.0232% and inactive: -0.342%,inactive: -0.976% and inactive: -1.02%,inactive: -0.0056% and inactive: -1.15%,inactive: -0.143% and inactive: -0.398%,inactive: -1.32% and inactive: -1.31%,inactive: -0.112% and inactive: -0.29%,inactive: -0.577% and inactive: -0.473%,inactive: 0.0943% and inactive: -1.23%,inactive: -0.798% and inactive: -1.1%,inactive: -0.104% and inactive: -0.384%,–,–,–,–,–,inactive: -2.48% and inactive: -9.78%,–
